Biological target: Nav1.5 channel (Homo sapiens, UniProt Q14524)
Test: PatchXpress Nav1.5 channel assay in CHL-Nav1.5 cells
Type: cell-based

Amino acid sequences for entries named in this document (tags omitted).
UniProt Q14524, whole entry: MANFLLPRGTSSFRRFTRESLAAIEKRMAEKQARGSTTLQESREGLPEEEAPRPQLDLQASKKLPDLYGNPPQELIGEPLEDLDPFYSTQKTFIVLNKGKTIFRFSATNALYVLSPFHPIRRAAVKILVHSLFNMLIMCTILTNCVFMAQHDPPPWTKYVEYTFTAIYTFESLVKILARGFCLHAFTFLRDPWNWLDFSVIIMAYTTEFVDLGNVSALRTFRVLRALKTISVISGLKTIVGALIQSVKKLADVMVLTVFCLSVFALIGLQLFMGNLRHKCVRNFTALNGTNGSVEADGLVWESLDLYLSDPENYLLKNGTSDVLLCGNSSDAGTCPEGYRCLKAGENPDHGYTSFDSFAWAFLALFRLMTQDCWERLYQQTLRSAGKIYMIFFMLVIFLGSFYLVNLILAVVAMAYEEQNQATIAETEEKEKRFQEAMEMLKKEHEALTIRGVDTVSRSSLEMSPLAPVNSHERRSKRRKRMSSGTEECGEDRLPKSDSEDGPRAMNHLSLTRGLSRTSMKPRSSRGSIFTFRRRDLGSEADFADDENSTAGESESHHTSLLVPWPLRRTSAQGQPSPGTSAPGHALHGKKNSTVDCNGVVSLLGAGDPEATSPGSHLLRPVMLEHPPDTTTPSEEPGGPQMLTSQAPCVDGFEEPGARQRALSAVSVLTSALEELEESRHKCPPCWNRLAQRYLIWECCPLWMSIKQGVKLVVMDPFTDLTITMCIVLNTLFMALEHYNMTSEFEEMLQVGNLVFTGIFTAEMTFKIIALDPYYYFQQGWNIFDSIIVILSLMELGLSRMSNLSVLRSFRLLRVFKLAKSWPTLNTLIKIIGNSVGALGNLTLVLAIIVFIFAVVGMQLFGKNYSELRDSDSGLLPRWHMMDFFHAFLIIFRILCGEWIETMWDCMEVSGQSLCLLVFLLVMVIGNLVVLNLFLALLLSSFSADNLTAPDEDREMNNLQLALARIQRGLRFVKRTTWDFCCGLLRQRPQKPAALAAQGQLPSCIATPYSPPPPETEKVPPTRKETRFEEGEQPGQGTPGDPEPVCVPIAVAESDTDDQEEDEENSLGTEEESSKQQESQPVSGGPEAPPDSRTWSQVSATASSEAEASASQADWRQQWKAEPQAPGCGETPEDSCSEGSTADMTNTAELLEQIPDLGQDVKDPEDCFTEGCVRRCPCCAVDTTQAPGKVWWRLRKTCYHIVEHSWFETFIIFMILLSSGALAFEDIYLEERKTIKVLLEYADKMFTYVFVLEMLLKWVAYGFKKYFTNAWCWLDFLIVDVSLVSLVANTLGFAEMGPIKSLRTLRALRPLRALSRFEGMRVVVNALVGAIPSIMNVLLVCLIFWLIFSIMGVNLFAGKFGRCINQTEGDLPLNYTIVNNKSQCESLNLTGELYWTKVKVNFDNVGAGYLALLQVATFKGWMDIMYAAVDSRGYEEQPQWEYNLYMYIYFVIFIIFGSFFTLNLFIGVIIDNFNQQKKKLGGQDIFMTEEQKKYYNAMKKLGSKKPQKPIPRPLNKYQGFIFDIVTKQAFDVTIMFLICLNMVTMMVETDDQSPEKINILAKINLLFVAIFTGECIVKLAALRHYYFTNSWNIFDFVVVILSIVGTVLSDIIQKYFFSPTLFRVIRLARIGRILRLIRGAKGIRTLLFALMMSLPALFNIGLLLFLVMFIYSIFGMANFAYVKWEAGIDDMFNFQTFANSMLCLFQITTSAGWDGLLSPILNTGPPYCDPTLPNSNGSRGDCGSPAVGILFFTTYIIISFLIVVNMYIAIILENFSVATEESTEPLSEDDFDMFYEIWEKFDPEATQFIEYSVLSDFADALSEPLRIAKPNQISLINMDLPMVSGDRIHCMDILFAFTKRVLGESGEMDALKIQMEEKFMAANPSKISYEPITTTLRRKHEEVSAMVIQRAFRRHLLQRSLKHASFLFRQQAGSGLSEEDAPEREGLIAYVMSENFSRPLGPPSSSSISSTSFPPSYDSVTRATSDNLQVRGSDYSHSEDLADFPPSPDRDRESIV

Question: For `CCN(CC)CCNC(=O)c1c(C)[nH]c(/C=C2\C(=O)Nc3ccc(F)cc32)c1C` [sunitinib, Sunitinib], which IC50 is on record?
Answer: The IC50 was 7 µM.

— paper PMC5858560 (2011)
